Data taken from patent US11858925B2, “GAS41 inhibitors and methods of use thereof” (The Regents of the University of Michigan, priority 2020, dated 2024).
pIC50: −log10 of the molar value.

By UniProt entry, the sequences of proteins in these tests, tags left out. Residues count along the entry.
UniProt O95619, 1-148: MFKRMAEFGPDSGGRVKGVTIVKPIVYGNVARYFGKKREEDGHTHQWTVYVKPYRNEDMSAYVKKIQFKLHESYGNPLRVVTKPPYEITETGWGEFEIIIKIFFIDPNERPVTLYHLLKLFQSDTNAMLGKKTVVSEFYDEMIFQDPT

Biological target: GAS41 YEATS domain (GST-GAS41(1-148)) (Homo sapiens, UniProt O95619)
Assay: biochemical

Compound	pIC50
CCCCOC1CCN(C(=O)c2ccc(CNC(C)=O)s2)C1 (stereo not drawn) [Compound 1]	< 4.30
CC(=O)NCc1ccc(C(=O)N2CCC(OCc3ccccc3)C2)s1 (stereo not drawn) [Compound 2]	< 4.30
CC(=O)NCc1ccc(C(=O)N2CCC(Oc3nccs3)C2)s1 (stereo not drawn) [Compound 3]	< 4.30
CCCCOC1CCN(C(=O)c2ccc(CNC(=O)c3ccccc3)s2)C1 (stereo not drawn) [Compound 4]	< 4.30
O=C(NCc1ccc(C(=O)N2CCC(OCc3ccccc3)C2)s1)c1ccccc1 (stereo not drawn) [Compound 5]	< 4.30
O=C(NCc1ccc(C(=O)N2CCC(Oc3nccs3)C2)s1)c1ccccc1 (stereo not drawn) [Compound 6]	< 4.30
O=C(NCc1ccc(C(=O)N2CCCC2)s1)c1ccccc1 [Compound 7]	< 4.30
CC(N)c1ccc(C(=O)N2CCCC2)s1 (stereo not drawn) [Compound 8]	< 4.30
CC(NC(=O)c1ccccc1)c1ccc(C(=O)N2CCCC2)s1 (stereo not drawn) [Compound 9]	< 4.30
CC(=O)NCc1ccc(C(=O)N2CCCC2)s1 [Compound 10]	< 4.30
O=C(NCc1ccc(C(=O)N2CC(Oc3cccnc3)C2)s1)c1ccccc1 [Compound 11]	< 4.30
O=C(NCc1ccc(C(=O)N2CC(Oc3ccccn3)C2)s1)c1ccccc1 [Compound 12]	< 4.30
CCCC(=O)NCc1ccc(C(=O)N2CCCC2)s1 [Compound 13]	< 4.30
O=C(NCc1ccc(C(=O)N2CCCC2)s1)C1CNC1 [Compound 14, N-((5-(pyrrolidine-1-carbonyl)thiophen-2-yl)methyl)azetidine-3-carboxamide]	< 4.30
COC(C)(C)c1ccc(C(=O)N2CC(Oc3ccncc3)C2)s1 [Compound 15]	< 4.30
O=C(NCc1ccc(C(=O)N2CC(Oc3nccs3)C2)s1)c1ccccc1 [Compound 16]	< 4.30
O=C(c1ccc(CNS(=O)(=O)c2ccccc2)s1)N1CCCC1 [Compound 17]	< 4.30
O=C(Cc1c[nH]cn1)NCc1ccc(C(=O)N2CCCC2)s1 [Compound 18]	< 4.30
Cc1cc(OC2CN(C(=O)c3ccc(CNC(=O)c4ccccc4)s3)C2)ccn1 [Compound 19]	< 4.30
O=C(Nc1ccc(C(=O)N2CCCC2)s1)C1CNC1 [Compound 20]	< 4.30
O=C(Nc1ccc(C(=O)N2CC(Oc3ccncc3Cl)C2)s1)C1CNC1 [Compound 21]	< 4.30

Compound	pIC50
O=C(c1ccc(NCC2CNC2)s1)N1CCCC1 [Compound 22]	< 4.30
CN[C@@H](C)C(=O)Nc1ccc(C(=O)N2CCCC2)s1 [Compound 27]	< 4.30
CN[C@H](C)C(=O)Nc1ccc(C(=O)N2CCCC2)s1 [Compound 28]	< 4.30
CN[C@@H](Cc1ccccc1)C(=O)Nc1ccc(C(=O)N2CCCC2)s1 [Compound 29]	< 4.30
CN[C@H](Cc1ccccc1)C(=O)Nc1ccc(C(=O)N2CCCC2)s1 [Compound 30]	< 4.30
O=C(Nc1ccc(C(=O)N2CCCC2)s1)C1CN(c2ccccc2)CCN1 (stereo not drawn) [Compound 31]	< 4.30
O=C(Nc1ccc(C(=O)N2CCCC2)s1)[C@@H]1C[C@H](F)CN1 [Compound 32]	< 4.30
O=C(Nc1ccc(C(=O)N2CCCC2)s1)[C@@H]1Cc2ccccc2N1 [Compound 33]	< 4.30
Cc1cc(C(=O)N2CCCC2)sc1NC(=O)[C@@H]1CCCN1 [Compound 34]	< 4.30
O=C(NCc1ccc(C(=O)N2CC(Oc3ccncc3)C2)s1)c1ccccc1 [Compound 35]	< 4.30
O=C(NCc1ccc(C(=O)N2CC(Oc3ccncc3Cl)C2)s1)c1ccccc1 [Compound 36]	4.30 to 5.00
O=C(Nc1ccc(C(=O)N2CCCC2)s1)C1CCN1 (stereo not drawn) [Compound 37, N-(5-(pyrrolidine-1-carbonyl)thiophen-2-yl)azetidine-2-carboxamide]	4.30 to 5.00
O=C(Nc1ccc(C(=O)N2CCCC2)s1)C1CCCN1 (stereo not drawn) [Compound 38]	4.30 to 5.00
O=C(Nc1ccc(C(=O)N2CC3(C2)CN(c2ccccn2)C3)s1)C1CCCN1 (stereo not drawn) [Compound 39]	< 4.30
O=C(Nc1ccc(C(=O)N2CC(c3ccncc3)C2)s1)C1CCCN1 (stereo not drawn) [Compound 40]	4.30 to 5.00
O=C(Nc1ccc(C(=O)N2CC(Oc3ccnc4ccccc34)C2)s1)C1CCCN1 (stereo not drawn) [Compound 41]	4.30 to 5.00
Cc1nccc(OC2CN(C(=O)c3ccc(NC(=O)C4CCCN4)s3)C2)c1Cl (stereo not drawn) [Compound 42]	4.30 to 5.00
O=C(Nc1ccc(C(=O)N2CCCC2)s1)[C@@H]1CCCN1 [Compound 44, (S)—N-(5-(pyrrolidine-1-carbonyl)thiophen-2-yl)pyrrolidine-2-carboxamide]	4.30 to 5.00
O=C(Nc1ccc(C(=O)N2CCCC2)s1)[C@H]1CCCN1 [Compound 45]	< 4.30
O=C(Nc1ccc(C(=O)N2CC(c3cccnc3)C2)s1)C1CCCN1 (stereo not drawn) [Compound 46]	4.30 to 5.00
O=C(Nc1ccc(C(=O)N2CC(c3cncc(Cl)c3)C2)s1)C1CCCN1 (stereo not drawn) [Compound 47]	4.30 to 5.00

Compound	pIC50
O=C(Nc1ccc(C(=O)N2CC(Oc3ccncc3)C2)s1)C1CCCN1 (stereo not drawn) [Compound 48]	< 4.30
O=C(Nc1ccc(C(=O)N2CC(Nc3ccncc3)C2)s1)[C@@H]1CCCN1 [Compound 50]	< 4.30
O=C(Nc1ccc(C(=O)N2CCCC2)s1)[C@@H]1C[C@H](O)CN1 [Compound 53]	4.30 to 5.00
O=C(Nc1ccc(C(=O)N2CCCC2)s1)[C@@H]1C[C@@H](O)CN1 [Compound 54]	4.30 to 5.00
CC1(C)CC[C@@H](C(=O)Nc2ccc(C(=O)N3CCCC3)s2)N1 [Compound 55]	< 4.30
O=C(Nc1ccc(C(=O)N2CC(Oc3ccc(F)cc3Cl)C2)s1)[C@@H]1CCCN1 [Compound 56]	4.30 to 5.00
CCO[C@H]1CN[C@H](C(=O)Nc2ccc(C(=O)N3CCCC3)s2)C1 [Compound 57]	< 4.30
O=C(Nc1ccc(C(=O)N2CCCC2)s1)[C@@H]1CC2(CC2)CN1 [Compound 58]	4.30 to 5.00
O=C(Nc1ccc(C(=O)N2CC(Oc3c(Cl)cncc3Cl)C2)s1)[C@@H]1CCCN1 [Compound 59]	4.30 to 5.00
C#CCO[C@H]1CN[C@H](C(=O)Nc2ccc(C(=O)N3CCCC3)s2)C1 [Compound 60]	4.30 to 5.00
O=C(Nc1ccc(C(=O)N2CC(Oc3ccnc4ccc(F)cc34)C2)s1)[C@@H]1CCCN1 [Compound 61]	4.30 to 5.00
O=C(Nc1ccc(C(=O)N2CC(c3cc4ccccc4s3)C2)s1)[C@@H]1CCCN1 [Compound 62]	4.30 to 5.00
O=C(Nc1ccc(C(=O)N2CC(OCC(F)(F)F)C2)s1)[C@@H]1CCCN1 [Compound 64]	4.30 to 5.00
C=C1CN[C@H](C(=O)Nc2ccc(C(=O)N3CCCC3)s2)C1 [Compound 65]	4.30 to 5.00
O=C(Nc1ccc(C(=O)N2CC(O)(c3ccccc3)C2)s1)[C@@H]1CCCN1 [Compound 66]	< 4.30
O=C(Nc1ccc(C(=O)N2CC(F)(c3ccccc3)C2)s1)[C@@H]1CCCN1 [Compound 67]	4.30 to 5.00
O=C(Nc1ccc(C(=O)N2CC(c3nc4c(Cl)cccc4s3)C2)s1)[C@@H]1CCCN1 [Compound 68]	4.30 to 5.00
O=C(Nc1ccc(C(=O)N2CCCC2)s1)[C@@H]1C[C@@H](OCc2ccccc2)CN1 [Compound 70]	4.30 to 5.00
O=C(Nc1ccc(C(=O)N2CC(C(F)c3ccccc3)C2)s1)[C@@H]1CCCN1 (stereo partly drawn) [Compound 72]	4.30 to 5.00
O=C(Nc1ccc(C(=O)N2CC(c3ncc(-c4cccc(Cl)c4)s3)C2)s1)[C@@H]1CCCN1 [Compound 73]	5.00 to 5.70
O=C(Nc1ccc(C(=O)N2CCCCC2)s1)[C@@H]1CCCN1 [Compound 74]	< 4.30
